Test results reported in ChEMBL document CHEMBL1141078, “Discovery of potent, nonsystemic apical sodium-codependent bile acid transporter inhibitors (Part 1)” (J Med Chem, 2005).

Target: T1, Ileal sodium/bile acid cotransporter (Homo sapiens, UniProt Q12908)
T1 sequence (Q12908 whole entry): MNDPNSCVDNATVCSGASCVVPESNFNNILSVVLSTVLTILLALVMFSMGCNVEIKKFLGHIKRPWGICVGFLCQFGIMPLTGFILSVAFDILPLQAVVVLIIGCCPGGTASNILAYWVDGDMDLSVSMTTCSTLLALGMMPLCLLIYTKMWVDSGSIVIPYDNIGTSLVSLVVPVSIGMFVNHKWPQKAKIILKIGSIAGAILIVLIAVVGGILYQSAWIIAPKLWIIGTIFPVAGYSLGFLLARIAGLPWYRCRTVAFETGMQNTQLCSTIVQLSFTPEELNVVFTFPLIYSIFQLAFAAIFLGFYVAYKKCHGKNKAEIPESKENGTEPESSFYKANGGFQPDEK
Test: In vitro inhibition of ASBT mediated uptake of [14C]taurocholate (5 uM) in Baby hamster cells expressing human IBAT
Type: cell-based
In short: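 BHK cells stably transfected with human IBAT cDNA (H14) were seeded 24–72 h before assay at cell densities adjusted to that interval. Cells were washed, then incubated for 2 h at 37 °C in DMEM (4.5 g/L glucose, 0.2% fatty-acid-free BSA) with test compound and [14C]taurocholate. Wells were washed with cold PBS containing BSA and then with PBS alone. Cell-associated radioactivity was measured by scintillation counting, and IC50 values were derived.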

IC50: 1300 nM
Structure (SMILES): CCCC[C@]1(CC)CS(=O)(=O)c2ccc(NC(=O)OC(C)(C)C)cc2[C@@H](c2ccccc2)[C@H]1O
